scFv variants of Ab-91 (heavy chain) against a SARS-CoV-2 spike peptide

Values reported by Engelhart et al. 2022, doi:10.1038/s41597-022-01779-4 (FLAb copy).

The target is the same throughout: PDVDLGDISGINAS, from the HR2 region of SARS-CoV-2 spike.

Parent scFv Ab-91: VL joined to VH by a (GGGGS)3 linker. Changes lie in the heavy chain CDRs alone.
VL: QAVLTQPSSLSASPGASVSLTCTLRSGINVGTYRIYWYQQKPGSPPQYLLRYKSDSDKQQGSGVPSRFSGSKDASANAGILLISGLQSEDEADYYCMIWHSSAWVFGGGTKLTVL
VH: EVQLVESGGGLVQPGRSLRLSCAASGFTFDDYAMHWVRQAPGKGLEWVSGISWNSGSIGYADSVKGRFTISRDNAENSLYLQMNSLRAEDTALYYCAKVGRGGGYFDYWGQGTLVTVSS

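The starting antibody came from a phage panning campaign against this peptide. Library AAYL51 holds single substitutions and randomly drawn double and triple substitutions in the CDRs. Affinity was read by AlphaSeq, a pooled yeast mating assay with surface-displayed partners. Mating (16 h, 30 °C) was followed by selection of diploids and sequencing of their barcodes. A regression on co-assayed BCL2-family reference pairs converts the normalised counts of each replicate to an apparent Kd. The assay was run in three technical replicates.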

Positions count from residue 1 of the parent VH; M34S puts S in place of M. This list gathers variants with a substitution at G103 (VH, numbered from residue 1). Values are apparent Kd, the geometric mean of the replicates that gave a signal; lower means stronger binding. "nd" means that the variant was in the library but no mating with the target was seen in any replicate; the authors take this as a sign of poor binding, and no number exists. Empty control strains, which show no peptide, gave a signal in 21% of pairings with library AAYL51; the median was 34 µM and 95% of these signals were weaker than 1.8 µM. No background was subtracted. For reference, the parent read 72 nM as the reference entry and 7.5 nM as a member of this library.

With M34S/G103I the result was 74 µM (2 of 3 replicates). With M34L/K65P/G103E the result was 28 µM (1 of 3 replicates). The variant A33R/G100Q/G103H showed nd (0 of 3 replicates). For D31L/G100Y/G103R, the assay gave 13 nM (3 of 3 replicates). The variant V64N/G103Y/Y105K showed nd (0 of 3 replicates).

The variant I51P/N54Q/G103T gave 5.0 µM (1 of 3 replicates). The variant S57L/V99K/G103I gave nd (0 of 3 replicates). The variant D31E/H35D/G103P showed nd (0 of 3 replicates). For T28V/S52A/G103T, the assay gave 240 µM (3 of 3 replicates). The variant F27W/G103V/G104P showed 420 µM (1 of 3 replicates).

With S63R/G103C the result was 76 µM (2 of 3 replicates). For G103Y, the assay gave 20 µM (3 of 3 replicates). The variant Y60E/G103M/D107V gave 1.8 µM (3 of 3 replicates). With G103D/D107A the result was 68 µM (1 of 3 replicates). With D31F/G103C the result was 5.4 µM (1 of 3 replicates).

With A33N/R101Q/G103Y the result was 24 µM (1 of 3 replicates). With T28M/G50N/G103F the result was 14 µM (2 of 3 replicates). For D62Y/G103D, the assay gave 1.9 µM (2 of 3 replicates). For G26F/G50K/G103H, the assay gave nd (0 of 3 replicates). For F29D/G103Y, the assay gave nd (0 of 3 replicates).

The variant M34Y/G103F/G104E showed nd (0 of 3 replicates). With D31K/I58S/G103T the result was nd (0 of 3 replicates). With G56V/A61L/G103H the result was 68 µM (1 of 3 replicates). The variant D30N/Y60I/G103Q gave nd (0 of 3 replicates). With A33S/N54P/G103K the result was nd (0 of 3 replicates).

With R101P/G103Q/Y105S the result was 400 µM (2 of 3 replicates). For I58T/Y60L/G103R, the assay gave nd (0 of 3 replicates). The variant G102Q/G103E/Y108P gave nd (0 of 3 replicates). The variant V64N/G103Q/Y105H gave 1.3 mM (1 of 3 replicates). The variant G50C/G56C/G103W showed 36 µM (2 of 3 replicates).

For D30H/W53L/G103I, the assay gave 13 nM (3 of 3 replicates). The variant N54L/G103T/Y105G gave nd (0 of 3 replicates). With S63Y/K65F/G103W the result was 25 µM (1 of 3 replicates). With A61T/K65Y/G103Q the result was nd (0 of 3 replicates).

Picked from the list: the 5 lowest averages where every replicate gave a value.

| changes | apparent Kd | seen in |
|---|---|---|
| D31L/G100Y/G103R | 13 nM | 3/3 |
| D30H/W53L/G103I | 13 nM | 3/3 |
| Y60E/G103M/D107V | 1.8 µM | 3/3 |
| G103Y | 20 µM | 3/3 |
| T28V/S52A/G103T | 240 µM | 3/3 |